# AlphaSeq binding of Ab-91 heavy chain variants to a spike HR2 peptide

Values reported by Engelhart et al. 2022, doi:10.1038/s41597-022-01779-4 (FLAb copy).

All variants were tested on one target, the spike HR2 peptide PDVDLGDISGINAS (SARS-CoV-2).

Parent scFv Ab-91: VL joined to VH by three GGGGS repeats. Changes lie in the heavy chain CDRs alone.
VL: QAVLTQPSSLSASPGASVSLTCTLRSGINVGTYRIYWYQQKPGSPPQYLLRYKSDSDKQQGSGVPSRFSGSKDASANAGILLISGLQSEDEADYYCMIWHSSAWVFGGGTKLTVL
VH: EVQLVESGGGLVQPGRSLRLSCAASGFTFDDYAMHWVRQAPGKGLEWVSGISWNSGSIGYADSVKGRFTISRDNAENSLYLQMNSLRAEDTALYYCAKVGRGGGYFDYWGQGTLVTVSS

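Phage display of a naive human antibody library on the peptide gave the parent. Library AAYL51 holds single substitutions and randomly drawn double and triple substitutions in the CDRs. Affinity was read by AlphaSeq, a pooled yeast mating assay with surface-displayed partners. Binding brings cells together so that they mate, and sequencing counts the barcode pairs among the diploids. Each replicate has its own calibration line, from reference interactions of the BCL2 family. There are three technical replicates.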

Changes read parent residue, position, new residue, counted from the first residue of the VH shown. This list gathers variants with a substitution at T28 (VH, numbered from residue 1). Affinities are written as log10 Kd with Kd in nM; a lower number is a better binder. An entry "nd" has no value in the source: the pair was not observed among the diploids in that replicate. This suggests poor binding but is not conclusive. Background: pairings of library AAYL51 with three empty control strains gave a value in 21% of cases (median 4.54, 5th percentile 3.26). Values in that range, when seen in few replicates, are hard to tell from nonspecific mating. For reference, the parent read 1.86 as the reference entry and 0.88 as a member of this library.

T28L D30N S63H: nd, nd, nd.
T28V G100K G103T: 5.18, 5.47, 5.69.
G26F T28E G104D: nd, nd, nd.
F27K T28Q G102R: 4.00, 5.35, 5.61.
T28D G104W F106N: nd, nd, 4.30.
T28P D31F F106V: nd, 5.26, 4.90.
T28P Y60A: 4.45, 4.21, nd.
T28Q Y32K V64H: nd, nd, nd.
T28W H35R: 4.44, nd, nd.
T28F S55W G102C: nd, nd, nd.
T28Q Y60L G100F: 4.39, nd, nd.
T28A D31P D107T: nd, 4.34, 4.94.
T28Y D31A Y108E: 2.49, 2.28, 1.97.
T28W S57H: 3.96, 3.53, 3.44.
T28I F29R A61R: nd, 6.17, nd.
T28G N54M S63K: nd, nd, nd.
T28Q D30R Y32T: 0.37, 0.18, -0.33.
T28W D62E D107S: 1.50, 1.15, 0.86.
T28K S57Q G103M: 4.05, nd, nd.
T28L A33L K65P: nd, nd, nd.
G26F T28D V99N: 4.89, nd, nd.
T28E G56C V64G: 5.57, nd, 5.23.
T28E H35F Y105N: 3.71, nd, 5.61.
T28D I58H: 2.30, 2.31, 2.48.
T28S I58G G104W: 5.32, 4.37, 5.52.
T28Y A61F V64H: nd, nd, nd.
T28Q S63D Y108R: 1.98, 1.81, 1.39.
T28N G102P: 3.97, 3.66, nd.
T28V D31C Y105C: nd, nd, nd.
T28Y S52P G100S: 3.52, nd, nd.
T28H A61E Y105T: 2.61, 2.95, 2.92.
T28P D107N Y108D: 3.09, 3.43, 3.63.
T28L G59T D107Y: nd, nd, nd.
T28V H35G S63W: 5.03, 3.48, 5.14.
G26K T28S D31I: nd, nd, nd.
T28P K65C: 1.71, 1.93, 1.36.
T28W S52T: nd, nd, nd.
T28Y S52C S57C: 3.10, 3.14, 2.83.
T28I: 6.04, 5.07, 4.80.

Excerpt, the final 3 entries:

T28W S52T: nd, nd, nd.
T28Y S52C S57C: 3.10, 3.14, 2.83.
T28I: 6.04, 5.07, 4.80.